Values of other authors, collected in patent US5762960A (Trustees of Tufts College, priority 1996, dated 1998).

Tested on: serotonin uptake
Set-up: Amine Uptakes Blocking Activity Serotonin: key to the marks not given beside the values
Conditions: cited from earlier work; for Activity at the serotonin receptor site in-vivo: in words, text commenting on Table 6; for Amine Uptakes Blocking Activity Serotonin: Table 3

| SMILES | Activity at the serotonin receptor site in-vivo | Amine Uptakes Blocking Activity Serotonin |
| --- | --- | --- |
| CNCCC(Oc1ccc(C(F)(F)F)cc1)c1ccccc1 (stereo not drawn) [Fluoxetine, fluoxetine] | greatest powers |  |
| CN(C)CCCN1c2ccccc2CCc2ccc(Cl)cc21 [Clomipramine, 3-chloro-10,11-dihydro-N,N-dimethyl-5H-benzo-[b,f]azepine-5-propamine] | highest or very highest | +++++ |
| CN(C)CCC=C1c2ccccc2CCc2ccccc21 [Amitriptyline] | highest or very highest | ++++ |
| Fc1ccc([C@@H]2CCNC[C@H]2COc2ccc3c(c2)OCO3)cc1 [Paroxetine, paroxetine] | greatest powers |  |
